SMILES strings stand for the structures.

Protein sequences, listed by entry. Tags and fused reporters are not part of them. Lines headed by an entry give the natural chain unless they say otherwise; changes in a name come on top.
UniProt P22303: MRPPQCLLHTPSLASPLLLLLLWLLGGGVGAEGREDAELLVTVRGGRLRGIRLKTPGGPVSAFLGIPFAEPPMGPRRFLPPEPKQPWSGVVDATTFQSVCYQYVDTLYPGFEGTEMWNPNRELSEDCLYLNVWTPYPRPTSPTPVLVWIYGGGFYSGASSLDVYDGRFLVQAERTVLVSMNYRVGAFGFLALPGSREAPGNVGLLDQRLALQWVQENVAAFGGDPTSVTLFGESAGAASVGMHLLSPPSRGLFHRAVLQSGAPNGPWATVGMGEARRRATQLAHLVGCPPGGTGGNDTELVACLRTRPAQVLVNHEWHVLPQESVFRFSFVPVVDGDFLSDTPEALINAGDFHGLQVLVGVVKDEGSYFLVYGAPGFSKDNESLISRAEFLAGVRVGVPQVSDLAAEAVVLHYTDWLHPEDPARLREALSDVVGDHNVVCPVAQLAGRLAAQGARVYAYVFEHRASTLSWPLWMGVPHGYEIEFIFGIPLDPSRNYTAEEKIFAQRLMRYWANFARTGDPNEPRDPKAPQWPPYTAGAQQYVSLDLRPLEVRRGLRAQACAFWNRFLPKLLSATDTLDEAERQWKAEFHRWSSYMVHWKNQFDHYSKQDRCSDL

The test deals with Acetylcholinesterase (Homo sapiens, UniProt P22303).

The IC50 is the concentration that gives 50% inhibition. A lower IC50 goes with greater potency in that assay. `COc1ccc2cc3[n+](cc2c1OC)CCc1cc2c(cc1-3)OCO2` [BERBERINE CHLORIDE] showed an IC50 of 610 nM.

For the origin of these results see ChEMBL document CHEMBL2163249, “Exploration of natural compounds as sources of new bifunctional scaffolds targeting cholinesterases and beta amyloid aggregation: the case of chelerythrine” (Bioorg Med Chem, 2012).
